Source: patent US20150110865A1, “CNS STIMULANT AND OPIOID RECEPTOR ANTAGONIST COMBINATION AS A NON-ADDICTIVE, NON-AVERSIVE AND SYNERGISTIC ANTI-OBESITY TREATMENT” (FLORIDA STATE UNIVERSITY RESEARCH FOUNDATION, priority 2013, published 2015)

Test system: μ opioid receptor (MOPR)
Test: MOPR activity by DAMGO-stimulated [35S]GTPγS binding in brain membranes of drug-treated mice after the CPP assay
Format: in vivo, mouse
Settings: high-dose MPH 7.5 mg/kg
Experimental: Activity of the μ opioid receptor (MOPR) is assayed by using [35S]GTPγS binding on membrane preparations. The same mice that are used in the conditioned place preference assay are used for these assays Immediately upon completion of the behavioral assay, the mice are sacrificed by cervical dislocation and the brain is dissected rapidly. The brain is frozen in liquid nitrogen and 1.0 mm slices of the brain were prepared in the coronal plane using a tissue-slicing matrix (Model 15003; Ted Pella, Redding, Calif.). Caudate-putamen and nucleus accumbens are identified in the frozen slices based on anatomical landmarks and samples from these two brain regions are collected using a tissue punch. The samples are homogenized using teflon pestle in Eppendorf tubes (10 strokes) in 300 μl of homogenization buffer containing 25 mMTris/pH 7.4, 5 mMEDTA and 0.1 mMPMSF and kept on ice. Homogenate is diluted to 2.5 ml using the homogenization buffer and centrifuged at −350,000 g for 30 min. […]
Nonspecific binding is defined by incubation in the presence of 10 μM GTPγS. […] Radioactivity on filters is determined by liquid scintillation counting. […]
Differences between two experimental groups are analyzed for statistical significance by using Student's t-test. […]

## COC(=O)C(c1ccccc1)C1CCCCN1 (centres unmarked) [MPH, methylphenidate]
After naltrexone CPP experiment, caudate-putamen and nucleus accumbens, n=8, FIG. 7
  MOPR activity compared to the saline group: significantly higher than that in the saline group
caudate-putamen and nucleus accumbens (both regions), p<0.05, n=6, FIG. 4
  MOPR activity compared to the saline group: significant increases in MOPR activity
